# Results as given in patent US11485700B2, “Synthesis of (+)-cannabinoids and their therapeutic effects” (SYMRISE AG, priority 2018, dated 2022).
# Biological target: CB2 receptor (Homo sapiens (Human), UniProt P34972)
# Assay: In vitro binding to CB2 receptor, [3H]-CP55940 radioligand displacement
# Details: [3H]-CP55940 0.15 nM, membranes of transfected cells
# Procedure: Compounds with an expected profile as CB1 and/or CB2 receptor ligands were evaluated by competition studies that allow determining the affinity of these compounds (Ki values) for both receptors against a classical cannabinoid ligand. The competition studies were conducted with membranes transfected with either CB1 or CB2 receptors. For stock solutions the compounds were dissolved at concentrations of 50 and 100 mM and stored at −20° C.
# 96-well plates and the tubes necessary for the experiment were siliconized with Sigmacote (Sigma). Membranes were resuspended in the corresponding buffer and were incubated with the radioligand and each compound for 90 min at 30° C. Non-specific binding was determined with 10 μM WIN55212-2 and 100% binding of the radioligand to the membrane was determined by its incubation with membrane and without any compound. Filtration was performed by a Harvester®filtermate (Perkin-Elmer) with Filtermat A GF/C filters pretreated with polyethylenimine 0.05%. After filtering, the filter was washed nine times with binding buffer, dried and a melt-on scintillation sheet (Meltilex™ A, Perkin Elmer) was melted onto it. Then, radioactivity was quantified by a liquid scintillation spectrophotometer (Wallac MicroBeta Trilux, Perkin-Elmer). […]
smiles,measurement,value
"C=C(C)[C@H]1CCC(C)=C[C@@H]1c1c(O)cc(CCCCC)cc1O [(+)-CBD, (+)-Cannabidiol]",Ki,0.0405 µM
